Assay results taken from US6683105B2 (priority 1997, dated 2004).

Amino acid sequences for entries named in this document (tags omitted). Residues count along the entry.
UniProt P06276, 29-602: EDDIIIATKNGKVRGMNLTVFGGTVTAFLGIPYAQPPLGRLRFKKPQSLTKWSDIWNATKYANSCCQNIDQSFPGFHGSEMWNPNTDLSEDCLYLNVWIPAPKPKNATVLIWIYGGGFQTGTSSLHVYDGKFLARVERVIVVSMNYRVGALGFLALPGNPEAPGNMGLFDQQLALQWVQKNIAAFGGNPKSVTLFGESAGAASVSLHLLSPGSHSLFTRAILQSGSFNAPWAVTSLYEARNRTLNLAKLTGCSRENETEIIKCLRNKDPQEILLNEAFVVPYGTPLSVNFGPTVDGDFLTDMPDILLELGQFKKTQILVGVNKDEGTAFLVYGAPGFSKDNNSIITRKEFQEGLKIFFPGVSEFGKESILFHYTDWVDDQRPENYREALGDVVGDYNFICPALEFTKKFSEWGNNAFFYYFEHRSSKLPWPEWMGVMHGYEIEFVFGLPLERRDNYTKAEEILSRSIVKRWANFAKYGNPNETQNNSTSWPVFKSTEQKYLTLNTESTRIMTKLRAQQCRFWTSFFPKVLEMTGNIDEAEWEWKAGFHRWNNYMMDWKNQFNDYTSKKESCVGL

Biological target: T1, human plasma BChE (Homo sapiens, UniProt P06276)
T1 construct: human plasma BChE; from tissue; host or cells: human plasma
Assay: BChE inhibition, IC(50) by logit plot
Assay type: biochemical
Conditions: BChE compared with AChE
Protocol: The IC (50) values can be determined for such inhibitors using methods well known in the art. In such assay the pharmacological activity of each compound, as an IC (50), defined as the concentration, in nanomoles, required to inhibit 50% of the enzyme activity of AChE and BChE, is determined separately. For determination of IC (50) values, the enzyme activity of each concentration was expressed as a percent of that determined in the absence of each compound. This then was transformed into a logit format, where logit=In (% activity/[100-% activity]), and was plotted as a function of the log concentration of the compound. IC (50) values (i.e., logit=In (50/[100−5O]=0) were determined only from correlation coefficients (r^2) of less than −0.985 and when more than 50% inhibition was achieved from duplicate samples. The selectivity ratio is then determined by comparing the IC (50) values obtained for each compound with AChE to that for BChE.

SMILES	selectivity of inhibitory action for BChE versus AChE
CNC(=O)Oc1ccc2c(c1)[C@]1(C)CCNC1N2C (stereo partly drawn) [Compound 8, N^1-norphysostigmine]	provide BChE selectivity
CNC(=O)Oc1ccc2c(c1)C1(C)CCN(Cc3ccccc3)C1N2C (stereo not drawn) [Compound 12, N^1-benzylnorphysostigmine]	provide BChE selectivity
CNC(=O)Oc1ccc2c(c1)C1(C)CCN(CCc3ccccc3)C1N2C (stereo not drawn) [Compound 16, N^1-phenethylnorphysostigmine]	provide BChE selectivity
